Source: the NIST ThermoML archive (doi:10.1016/j.jct.2013.08.030)
± gives the expanded uncertainty stated by the source.

Assay: activity coefficient (dimensionless); of the first substance listed, at infinite dilution; xn = mol fraction of the nth substance listed
Settings: 101 kPa, Liquid, Chromatography, x1 = 0

Structure (SMILES): CCCCOCCCC [dibutyl ether] + CCCC[N+]1(C)CCOCC1.N#C[C-](C#N)C#N
- activity coefficient (318.15 K): 39.7 ± 2.7
- activity coefficient (328.15 K): 37.3 ± 2.6
- activity coefficient (338.15 K): 35.1 ± 2.4
- activity coefficient (348.15 K): 33.3 ± 2.3
- activity coefficient (358.15 K): 31.5 ± 2.2
- activity coefficient (368.15 K): 29.7 ± 2
